{"source": "patent US9522881B2", "about": "“Hydroxyindole carboxylic acid based inhibitors for oncogenic Src homology-2 domain containing protein tyrosine phosphatase-2 (SHP2)” (Indiana University Research and Technology Corporation, priority 2013, dated 2016)", "key": {"SHP2/R362A": {"molecular_target": "SHP2/R362A (Homo sapiens (Human), UniProt Q06124, R362A)"}, "SHP2/K364S": {"molecular_target": "SHP2/K364S (Homo sapiens (Human), UniProt Q06124, K364S)"}}}
{"molecule": "Cn1c(-c2cccc(NC(=O)C(=O)Nc3ccc(-c4ccsc4)cc3)c2)c(I)c2cc(C(=O)O)c(O)cc21", "note": "[11a-1, 6-hydroxy-3-iodo-1-methyl-2-(3-(2-oxo-2-((4-(thiophen-3-yl)phenyl)amino)acetamido)phenyl)-1H-indole-5-carboxylic acid]", "values": [{"measurement": "IC50 for SHP2/R362A, fold higher than that of the wild-type enzyme", "setting": "SHP2/R362A", "value": 2.2, "unit": "fold"}, {"measurement": "IC50 for SHP2/K364S, fold higher than that of the wild-type enzyme", "setting": "SHP2/K364S", "value": 1.3, "unit": "fold"}]}
